# Earlier results, collected in patent US12295943B2 (Closed Loop Medicine Ltd., priority 2023, dated 2025).
compound,measurement,setting,value
COc1ccc(-n2nc(C(N)=O)c3c2C(=O)N(c2ccc(N4CCCCC4=O)cc2)CC3)cc1 [Apixaban],active metabolites in plasma,"human, in vivo",no active metabolites
same,dose proportionality of plasma exposure,"human, in vivo",increases proportionally with dose up to 10 mg
same,total exposure with food,with food,unaffected
